Target: Nitric oxide synthase, brain (Homo sapiens, UniProt P29475)
Experiment: Inhibition of recombinant NOS1 assessed as citrulline formation

Protein sequences, listed by entry. Tags and fused reporters are not part of them.
UniProt P29475, whole entry, looked up: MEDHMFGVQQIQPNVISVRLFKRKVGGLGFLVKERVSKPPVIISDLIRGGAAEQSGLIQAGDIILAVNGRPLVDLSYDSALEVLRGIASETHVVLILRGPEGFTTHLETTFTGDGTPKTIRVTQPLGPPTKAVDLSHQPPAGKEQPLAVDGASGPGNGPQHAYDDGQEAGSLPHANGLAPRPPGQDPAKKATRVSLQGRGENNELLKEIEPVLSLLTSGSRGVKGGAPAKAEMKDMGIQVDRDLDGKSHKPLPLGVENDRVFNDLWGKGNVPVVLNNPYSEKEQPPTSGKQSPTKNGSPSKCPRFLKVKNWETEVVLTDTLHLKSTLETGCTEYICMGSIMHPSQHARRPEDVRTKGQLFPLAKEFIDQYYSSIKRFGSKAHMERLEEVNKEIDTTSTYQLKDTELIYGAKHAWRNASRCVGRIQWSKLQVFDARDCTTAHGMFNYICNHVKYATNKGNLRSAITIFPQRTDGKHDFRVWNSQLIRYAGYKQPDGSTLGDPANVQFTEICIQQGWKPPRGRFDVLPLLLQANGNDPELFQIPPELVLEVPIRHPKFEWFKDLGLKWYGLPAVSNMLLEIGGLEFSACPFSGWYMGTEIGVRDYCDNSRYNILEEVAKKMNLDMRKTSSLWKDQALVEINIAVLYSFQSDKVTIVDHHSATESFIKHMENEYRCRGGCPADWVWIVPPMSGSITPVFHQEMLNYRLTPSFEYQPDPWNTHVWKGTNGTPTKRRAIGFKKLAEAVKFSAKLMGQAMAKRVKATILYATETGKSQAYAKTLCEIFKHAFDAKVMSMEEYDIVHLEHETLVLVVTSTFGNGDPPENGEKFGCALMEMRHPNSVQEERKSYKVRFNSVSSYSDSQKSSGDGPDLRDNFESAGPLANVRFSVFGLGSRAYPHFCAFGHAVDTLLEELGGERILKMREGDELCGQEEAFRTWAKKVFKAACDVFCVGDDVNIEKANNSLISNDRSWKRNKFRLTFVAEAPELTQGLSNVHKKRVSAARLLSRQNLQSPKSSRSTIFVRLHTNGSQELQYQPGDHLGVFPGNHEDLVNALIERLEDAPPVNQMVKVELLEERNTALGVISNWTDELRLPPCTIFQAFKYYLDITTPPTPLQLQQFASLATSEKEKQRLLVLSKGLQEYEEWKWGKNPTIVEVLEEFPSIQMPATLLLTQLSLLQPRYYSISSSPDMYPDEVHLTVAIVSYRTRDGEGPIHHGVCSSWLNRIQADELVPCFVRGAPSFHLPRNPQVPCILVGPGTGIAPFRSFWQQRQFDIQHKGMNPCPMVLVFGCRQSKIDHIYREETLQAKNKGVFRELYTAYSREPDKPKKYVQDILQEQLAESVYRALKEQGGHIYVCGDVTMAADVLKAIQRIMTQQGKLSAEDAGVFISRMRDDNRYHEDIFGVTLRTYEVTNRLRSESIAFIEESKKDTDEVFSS

SMILES: O=[N+]([O-])c1ccc2c(c1)c(Br)nn2[N+](=O)[O-]
- IC50: 275 µM

Source: BindingDB's records for 19679481
